Earlier results in paper PMC3254090 (ACS chemical neuroscience, 2011).

Conditions: cited from earlier work

## 6-hydroxytrypargine [compound 6]
  toxicity: highly toxic
